Values quoted from earlier work as cited in publication PMC10682952.

Sequences of proteins named here, by UniProt entry; tags and fusion partners are left off. Residues count along the entry.
UniProt P19235, 25-250: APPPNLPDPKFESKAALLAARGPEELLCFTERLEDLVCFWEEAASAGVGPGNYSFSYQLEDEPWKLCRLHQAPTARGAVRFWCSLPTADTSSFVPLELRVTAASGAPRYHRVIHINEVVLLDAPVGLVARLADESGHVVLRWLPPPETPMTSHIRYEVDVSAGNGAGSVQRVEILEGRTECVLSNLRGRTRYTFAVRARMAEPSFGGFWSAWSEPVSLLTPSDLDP

Biological target: EPOR ECD (Homo sapiens) (UniProt P19235)
Assay: radio-receptor assay

Kd: 0.17 nM
Substance: EPO (from UniProt P01588)
